Measurements taken from US20250333418A1, “PURINE COMPOUNDS, COMPOSITIONS COMPRISING THEM AND USES THEREOF” (Novo Nordisk A/S, priority 2022, published 2025).

Sequences of proteins named here, by UniProt entry; tags and fusion partners are left off.
UniProt P21554, whole entry: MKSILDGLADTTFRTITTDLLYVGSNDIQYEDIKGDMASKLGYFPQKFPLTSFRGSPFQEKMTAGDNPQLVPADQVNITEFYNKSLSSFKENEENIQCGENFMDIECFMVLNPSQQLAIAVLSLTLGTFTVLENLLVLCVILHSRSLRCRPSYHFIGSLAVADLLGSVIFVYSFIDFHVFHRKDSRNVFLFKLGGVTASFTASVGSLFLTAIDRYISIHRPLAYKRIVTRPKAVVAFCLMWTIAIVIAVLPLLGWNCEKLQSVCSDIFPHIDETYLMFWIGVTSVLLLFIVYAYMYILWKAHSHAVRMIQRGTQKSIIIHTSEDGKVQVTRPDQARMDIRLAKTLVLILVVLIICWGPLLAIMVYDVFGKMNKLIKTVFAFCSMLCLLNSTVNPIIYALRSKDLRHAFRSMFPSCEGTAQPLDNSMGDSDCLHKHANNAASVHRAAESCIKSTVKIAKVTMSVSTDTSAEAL

Key:
human CB1 receptor [1] = biological target: T1, human CB1 receptor (Homo sapiens, UniProt P21554); test: bioSensAll β-arrestin2 plasma membrane translocation (+GRK2) BRET biosensor assay in HEK293 cells transfected with hCB1; test compound added before EC75-80 of agonist CP55,940 (100 nM); conditions: read-out: CB1 wt βarr2 IC50, βArrestin2 (+GRK2) BRET biosensor, vs CP55,940 100 nM (EC75-80)
Experimental: (§1) Using polyethylenimine (PEI) transfection agent, HEK293 cells were transfected in suspension with the human CB1 receptor and one of the following bioSensAll® assays: GAPL-Gi2, or β-arrestin plasma membrane (PM) translocation biosensor (+GRK2). Cells were directly seeded in 96-well plates immediately following transfection.
(§2) Cells were incubated with coelenterazine (luciferase substrate) and different test compounds prior to the measurement of BRET signals.
(§3) Used in this project are i) Gα plasma membrane (GAPL) biosensors and the ii) β-arrestin plasma membrane translocation biosensor.
ii) The multimolecular β-arrestin membrane recruitment biosensors allow for real-time spatio-temporal monitoring of β-arrestin 1 and β-arrestin 2 following GPCR activation. Specifically, these β-arrestin sensors were designed to detect the recruitment of proteins to the plasma membrane (β-arrestin PM) with localization to compartment resulting in an increased BRET signal.
(§4) HEK293 cells were maintained in Dulbecco's Modified Eagle Medium (DMEM) (Wisent; cat #319-030-CL: without sodium pyruvate, with 4.5 g/L glucose, without L-glutamine) supplemented with 1% penicillin-streptomycin (Wisent; cat #450-201-EL) and 2 or 10% fetal bovine serum (Wisent cat #090150).
(§5) HEK293 cells were co-transfected with hCB1 and one of the above-listed bioSensAll® assays. For each transfection condition: • the total amount of transfected DNA was kept constant at 1 μg per mL of cell culture to be transfected; whenever necessary, salmon sperm DNA (Invitrogen, cat #15632011) was used as ‘carrier’ DNA to supplement plasmid DNA (i.e., biosensor and receptor); • the PEI (polyethylenimine 25 kDa linear, PolyScience, cat #23966) to DNA ratio (ug:ug) was fixed at 3:1.
(§6) Transfections were carried out as follows: • DNA and PEI were first diluted separately in 150 mM NaCl. The volume of the diluent in each tube corresponds to 5% of the cell culture volume to be transfected. • Once DNA and PEI were diluted, the PEI-containing solution was added to the DNA solution and the DNA/PEI mixture immediately vortexed for 5 seconds. • The DNA/PEI mixture was incubated for at least 20 minutes at room temperature to allow for the formation of DNA/PEI complexes. • During the incubation, HEK293 cells were detached, counted and re-suspended in culture medium (composition specified above). • At the end of the incubation period, the DNA/PEI mixture was added to the cells. • Cells were finally distributed in 96-well plates (White Opaque 96-well/Microplates, Greiner, cat #655083 or CulturPlate-96, White Opaque 96-well Microplate, PerkinElmer, cat #6005688) at a density of 30,000 cells per well.
(§7) At 48 hours post-transfection: • Using 450-Select TS Biotek plate washer, culture medium was aspirated and replaced with 100 μL of Hank's Balanced Salt Solution buffer (HBSS) (Wisent, cat #319-067CL: without red phenol; with sodium bicarbonate, with calcium and magnesium, with HEPES) per well. • Plates were then incubated (equilibrated) at 37° C., 5% CO2 for 60 minutes. • Increasing doses of test compounds were then added to each well using the HP D300e digital dispenser (Tecan). All compounds were assayed at the following 12 concentrations (in nM) with each biosensor: 0.000, 0.013, 0.040, 0.120, 0.320, 0.960, 2.80, 8.00, 24.0, 70.0, 205 and 600. • Three to 5 minutes later, an assay-specific effective concentration (EC)75-80 of agonist CP55,940 (i.e., 0.1 nM and 100 nM for G[…]i2-GAPL or […]Arrestin2 (+GRK2) assay, respectively) was added to wells previously injected with test compound (i.e., previous step 3). […]

human CB1 receptor [2] = biological target: T1, human CB1 receptor; test: bioSensAll GAPL-Gi2 BRET biosensor assay in HEK293 cells transfected with hCB1; test compound added before EC75-80 of agonist CP55,940 (0.1 nM); conditions: read-out: CB1 wt Gi2 IC50, vs CP55,940 0.1 nM (EC75-80)
Experimental: as §1, §2, §3
i) GAPL sensors are used to monitor the activation of heterotrimeric G proteins at the plasma membrane upon receptor stimulation. Specifically, these multimolecular BRET sensors detect the plasma membrane recruitment of proteins that interact with active Gα subunits in a G protein family-selective manner. G protein activation following receptor stimulation generally leads to an increase in the BRET signal.
as §4, §5, §6, §7

Row | Compound | IC50 (human CB1 receptor [1]) [nM] | IC50 (human CB1 receptor [2]) [nM]
1 | CN(CCO)c1nc(N[C@@H]2CCS(=O)(=O)C2)c2nc(-c3ccccc3Cl)n(-c3ccc(Cl)cc3)c2n1 | 15.8 | 1.23
2 | CC(=O)NC1(C)CN(c2nc(OCC(C)(C)O)nc3c2nc(-c2ccccc2Cl)n3-c2ccc(Cl)cc2)C1 | 22.3 | 2.37
3 | CCOC1(C(N)=O)CCN(c2nc(N3CC[C@@](C)(O)C3)nc3c2nc(-c2ccccc2Cl)n3-c2ccc(Cl)cc2)CC1 | 2.57 | 0.881
4 | CN1CCC[C@@H]1COc1nc(N2CCC(C)(C(N)=O)CC2)c2nc(-c3ccccc3Cl)n(-c3ccc(Cl)cc3)c2n1 | 2.76 | 0.895
5 | CN(CCO)c1nc(N[C@H]2CCOC2)c2nc(-c3ccccc3Cl)n(-c3ccc(Cl)cc3)c2n1 | 3.88 | 0.394
6 | CN(CCO)c1nc(N[C@@H]2CCOC2)c2nc(-c3ccccc3Cl)n(-c3ccc(Cl)cc3)c2n1 | 6.02 | 0.445
7 | CC(C)Oc1nc(O[C@@H](C)CO)nc2c1nc(-c1ccccc1Cl)n2-c1ccc(Cl)cc1 | 10.3 | 1.37
8 | OC[C@H]1CN(c2nc(N3CCC[C@H]3CO)nc3c2nc(-c2ccccc2Cl)n3-c2ccc(Cl)cc2)CCO1 | 5.27 | 0.962
9 | CN(CCO)c1nc(N2CC[C@H](CO)C2)c2nc(-c3ccccc3Cl)n(-c3ccc(Cl)cc3)c2n1 | 3.94 | 0.645
10 | CN1CC(F)(F)C[C@H]1COc1nc(N2CCC(C)(C(N)=O)CC2)c2nc(-c3ccccc3Cl)n(-c3ccc(Cl)cc3)c2n1 | 12.5 | 3.65
11 | CC(=O)NC1(C)CN(c2nc(N3CCC[C@H]3CO)nc3c2nc(-c2ccccc2Cl)n3-c2ccc(Cl)cc2)C1 | 1.27 | 0.49
12 | CC(C)(O)COc1nc(N2CCC(O)(C(N)=O)CC2)c2nc(-c3ccccc3Cl)n(-c3ccc(Cl)cc3)c2n1 | 141 | 16.8
13 | CN(CCO)c1nc(N[C@H]2CCS(=O)(=O)C2)c2nc(-c3ccccc3Cl)n(-c3ccc(Cl)cc3)c2n1 | 4.75 | 0.752
14 | CN(CCO)c1nc(N2CCO[C@@H](CO)C2)c2nc(-c3ccccc3Cl)n(-c3ccc(Cl)cc3)c2n1 | 14.3 | 0.887
15 | CC(C)(O)COc1nc(N2CCC[C@H](C(N)=O)C2)c2nc(-c3ccccc3Cl)n(-c3ccc(Cl)cc3)c2n1 | 38.8 | 5.91
16 | CN(CCO)c1nc(N(C)[C@@H]2CCOC2)c2nc(-c3ccccc3Cl)n(-c3ccc(Cl)cc3)c2n1 | 1.42 | 0.186
17 | CC(C)OC1(C(N)=O)CCN(c2nc(N3CCC[C@H]3CO)nc3c2nc(-c2ccccc2Cl)n3-c2ccc(Cl)cc2)CC1 | 1.56 | 1.02
18 | CN1C[C@H](O)C[C@H]1COc1nc(N2CCC(C)(C(N)=O)CC2)c2nc(-c3ccccc3Cl)n(-c3ccc(Cl)cc3)c2n1 | 28.5 | 1.31
19 | CN(CCO)c1nc(N2CC[C@@H](CO)C2)c2nc(-c3ccccc3Cl)n(-c3ccc(Cl)cc3)c2n1 | 1.21 | 0.226
20 | CC(C)(O)COc1nc(N2CC[C@@](C)(O)C2)c2nc(-c3ccccc3Cl)n(-c3ccc(Cl)cc3)c2n1 | 21.6 | 3.09
21 | CC(C)(O)COc1nc(N2CCC[C@@H](C(N)=O)C2)c2nc(-c3ccccc3Cl)n(-c3ccc(Cl)cc3)c2n1 | 14.8 | 1.88
